PMC9562916, “Investigation of the Phenolic Component Bioavailability Using the In Vitro Digestion/Caco-2 Cell Model, as well as the Antioxidant Activity in Chinese Red Wine” (Foods, 2022)
Marks after values point to notes of the source that are not given here.

System: Caco-2 cell monolayer
Experiment: Caco-2 transepithelial transport assay of digested red wine
Type: in vitro ADME, human
Experimental: Caco-2 cells were inoculated following the method of Hubatsch et al. […] Briefly, a 5% v/v of CO2 incubator at 37 °C was used to house the cells. […] Caco-2 cells were sub-cultured when they reached 80-90% of the adherent growth by treating them with a 0.05% v/v of trypsin-EDTA solution. The culture between passages 35 and 40 was used for the following experiment. Transport experiments were performed according to the method of Wu et al. with slight modifications. First, 1.0 × 10^5 Caco-2 cells were inoculated onto 12 mm transparent cell culture plates (Transwell). Media were carefully injected into the apical (0.5 mL) and basolateral (1.5 mL) sides of the Transwell plates. The cell culture medium had to be replaced every other day until the cells formed a monolayer. The integrity and transport ability of the Caco-2 cell monolayer were evaluated by measuring the trans-epithelial electrical resistance (TEER) with a MilliCell voltammeter (Millicell ERS-2, Merck Millipore, Billerica, MA, USA). […] When the cell activity exceeded 0.9, a transport experiment was conducted. The apical side was injected with a digested red wine sample (0.5 mL) and was thoroughly mixed with […] Balanced Salt Solution (HBSS) buffer solution. […] The cells were then cultured in a 37 °C, 5% CO2 incubator. Then, 0.25 mL samples were separately taken from the basolateral side of the monolayer. An equal volume of HBSS buffer was then added every half hour from the beginning of the culture until the end of the culture at 6 h. The collected samples were subsequently filtered and placed in the sample bottle for further HPLC analysis. This experiment was repeated several times to collect enough samples for the next antioxidant test. […] PCs were determined according to their retention times, UV/VIS spectra, and high-resolution MS spectra, in addition to a comparison with the standards. […] PCs All of the samples were determined in triplicate.

PC Contents, Cabernet, Transmembrane: 3.16 ± 0.15 ^a mg/L
PC Contents, Helanshan, Transmembrane: 1.90 ± 0.07 ^a mg/L
PC Contents, Tianzhu, Transmembrane: 3.33 ± 0.15 ^a mg/L
SMILES: O.Oc1cc(O)c2c(c1)O[C@H](c1ccc(O)c(O)c1)[C@@H](O)C2 [Catechin]
